From PMC7796366, “Application of HPLC-DAD for In Vitro Investigation of Acetylcholinesterase Inhibition Activity of Selected Isoquinoline Alkaloids from Sanguinaria canadensis Extracts” (Molecules, 2021)
Values joined by “and” are separate entries in the source; they are usually repeats but may differ in a detail not shown here. Equal values may be shown once.

Sequences of proteins named here, by UniProt entry; tags and fusion partners are left off. Residues count along the entry.
UniProt P22303, 32-614, species assumed: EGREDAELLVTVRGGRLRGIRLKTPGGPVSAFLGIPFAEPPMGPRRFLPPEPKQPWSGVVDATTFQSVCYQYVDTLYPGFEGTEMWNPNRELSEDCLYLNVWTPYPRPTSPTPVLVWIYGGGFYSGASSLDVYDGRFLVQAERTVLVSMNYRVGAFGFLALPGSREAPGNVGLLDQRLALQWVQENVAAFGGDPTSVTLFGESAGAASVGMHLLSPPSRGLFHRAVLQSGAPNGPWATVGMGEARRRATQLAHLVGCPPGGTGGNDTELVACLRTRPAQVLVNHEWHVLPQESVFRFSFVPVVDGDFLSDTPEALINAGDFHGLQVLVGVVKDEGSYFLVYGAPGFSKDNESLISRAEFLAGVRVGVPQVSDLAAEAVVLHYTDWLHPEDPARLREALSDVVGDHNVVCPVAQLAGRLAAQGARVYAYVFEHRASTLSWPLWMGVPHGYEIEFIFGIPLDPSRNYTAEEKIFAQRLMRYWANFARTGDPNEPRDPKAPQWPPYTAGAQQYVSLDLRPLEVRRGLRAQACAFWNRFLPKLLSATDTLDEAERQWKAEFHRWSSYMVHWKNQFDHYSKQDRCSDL

Molecular target: T1, acetylcholinesterase (Homo sapiens, UniProt P22303)
T1 construct: purchased Sigma-Aldrich (St. Louis, MO, USA)
Experiment: biochemical
Method: For determination of acetylcholinesterase inhibitory activity, HPLC analysis was performed on the same apparatus as determination of alkaloid contents on Polar RP column with mobile phase A containing methanol and 0.0025 M diethylamine, mobile phase B containing acetate buffer at pH 3.8 and 0.0025 M diethylamine, and mobile phase in gradient elution: 0–15 min, 10% A; 15–30 min, 10–70% A; 30–60 min, 70% A. Flow rate was 1 mL/min.
[…] Samples for determination of acetylcholinesterase inhibitory activity were prepared by addition of 50 µL of acetylthiocholine iodide, 50 µL of 5′-dithiobis-(2-nitrobenzoic acid), […], and phosphate buffer at pH 7.8 to obtain 500 µL of final solution. […] All components were mixed and samples were incubated for 15 min at 37 °C. Samples were filtrated by syringe filter (CHROMAFIL Xtra, PVDF-29/25 0.20 µm) and injected into the HPLC system.

COc1ccc2cc3[n+](cc2c1OC)CCc1cc2c(cc1-3)OCO2 [Berberine]
IC50: 1070 nM and 1060 nM
